The list shows a part of the results, in another mix than the full data. Calls of active or inactive are those of the source.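 The calls were made as follows: active = mean inhibition across triplicates above the hit cutoff set in the earlier primary screen (cut at about 19% in these data); inactive = the rest.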
Each molecule was assayed against Group 3 secretory phospholipase A2 (Homo sapiens) (UniProt Q9NZ20) (assay: human group III sPLA2 inhibitors, confirmation, biochemical, QFRET, triplicate (AID 743280;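 also: 0% = enzyme with DMSO and 100% = DMSO wells lacking enzyme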)). Conditions: recombinant hGIII-sPLA2, BODIPY PC-A2 QFRET fluorescence; at 12.2 µM; active compounds read high.

By UniProt entry, the sequences of proteins in these tests, tags left out.
UniProt Q9NZ20, whole entry: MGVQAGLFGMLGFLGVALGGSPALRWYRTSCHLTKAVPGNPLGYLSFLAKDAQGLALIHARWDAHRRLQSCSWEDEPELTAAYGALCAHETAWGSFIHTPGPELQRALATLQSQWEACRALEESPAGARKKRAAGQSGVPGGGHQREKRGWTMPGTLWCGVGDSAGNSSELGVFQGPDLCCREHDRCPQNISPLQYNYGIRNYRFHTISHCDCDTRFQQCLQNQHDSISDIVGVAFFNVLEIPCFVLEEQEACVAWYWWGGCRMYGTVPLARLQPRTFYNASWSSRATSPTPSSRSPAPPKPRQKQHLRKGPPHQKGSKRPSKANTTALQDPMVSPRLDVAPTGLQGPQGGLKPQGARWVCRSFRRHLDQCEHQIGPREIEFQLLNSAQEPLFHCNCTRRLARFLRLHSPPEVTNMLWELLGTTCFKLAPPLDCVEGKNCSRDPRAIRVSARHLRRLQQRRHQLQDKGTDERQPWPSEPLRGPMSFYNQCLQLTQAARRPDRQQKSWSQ

| SMILES | inhibition |
| --- | --- |
| CCN1CCC(Nc2ccc(Cl)cc2)CC1 | inactive: 8.43% |

From PubChem BioAssay AID743280 (The Scripps Research Institute Molecular Screening Center, 2014)
